Data as given in patent US11168080B2, “Dynamin-1-like protein inhibitors” (Mitobridge, Inc., priority 2017, dated 2021).

The chains behind the UniProt entries cited, without tags or fusion partners.
UniProt O00429, whole entry: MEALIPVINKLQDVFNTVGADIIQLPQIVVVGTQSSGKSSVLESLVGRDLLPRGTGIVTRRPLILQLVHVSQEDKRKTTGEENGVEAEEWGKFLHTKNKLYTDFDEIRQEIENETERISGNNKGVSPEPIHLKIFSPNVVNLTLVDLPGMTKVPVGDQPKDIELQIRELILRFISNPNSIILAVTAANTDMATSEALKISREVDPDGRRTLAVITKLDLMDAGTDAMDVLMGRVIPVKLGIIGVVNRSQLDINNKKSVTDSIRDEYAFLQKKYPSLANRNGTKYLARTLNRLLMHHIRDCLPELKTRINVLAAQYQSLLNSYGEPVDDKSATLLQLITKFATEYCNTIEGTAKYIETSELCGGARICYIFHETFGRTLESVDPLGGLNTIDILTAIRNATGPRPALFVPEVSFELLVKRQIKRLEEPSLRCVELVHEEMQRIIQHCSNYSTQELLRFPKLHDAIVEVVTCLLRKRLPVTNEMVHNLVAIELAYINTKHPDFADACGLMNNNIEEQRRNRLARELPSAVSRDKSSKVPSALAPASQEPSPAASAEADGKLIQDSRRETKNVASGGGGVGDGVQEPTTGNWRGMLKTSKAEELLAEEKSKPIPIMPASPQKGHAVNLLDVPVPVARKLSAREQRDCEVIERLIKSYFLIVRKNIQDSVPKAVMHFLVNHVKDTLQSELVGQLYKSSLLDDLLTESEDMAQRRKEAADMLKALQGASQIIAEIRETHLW

Target: Drp1 (Homo sapiens (Human), UniProt O00429)
Experiment: Drp1 Activity Screen: colorimetric (malachite green) GTPase assay
Assay type: biochemical
Details: max % inhibition of Drp1 GTPase activity; 0.6 μM Drp1, 0.1 mg/mL liposomes, 1 mM GTP, 20 min at 37° C.
Procedure: The GTPase activity of Drp1 was assayed using a colorimetric assay similar to as described previously by Leonard M. et al. “Robust colorimetric assays for dynamin's basal and stimulated GTPase activities.” Methods Enzymol. […] Briefly, for GTPase assays of purified Drp1 inhibitor samples, 0.6 μM Drp1 preincubated with 0.1 mg/mL liposomes (consisting of 80% soybean lipids/20% cardiolipin) and inhibitor was added to 1 mM GTP in a microtiter plate for 20 min at 37° C. in 4 mM MgCl2, 10 mM Hepes (pH 7.0), 100 mM KCl, 1 mM DTT. Reactions were stopped by diluting with 0.5 mM EDTA. Samples were then incubated with malachite green reagent (1 mM malachite green and 50 mM ammonium molybdate in 1 N HCl), and the absorbance at 650 nm was measured. The reaction rates, IC50 values, and max % inhibition were determined using Excel/GraphPad Prism software.

max % inh	SMILES
32%	Nc1cc(C(=O)Nc2ccc(C(=O)O)cc2)n(Cc2csc(N3CCCCC3)n2)c1 [Compound A-53, 4-(4-Amino-1-((2-(piperidin-1-yl)thiazol-4-yl)methyl)-1H-pyrrole-2-carboxamido)benzoic acid]
46%	CC(=O)c1cc(C(=O)Nc2ccc(C(=O)O)cc2)n(Cc2csc(N3CCCCC3)n2)c1 [Compound A-56, 4-(4-acetyl-1-((2-(piperidin-1-yl)thiazol-4-yl)methyl)-1H-pyrrole-2-carboxamido)benzoic Acid]
